“Also recorded” adds a separate entry of the source.

Amino acid sequences for entries named in this document (tags omitted).
UniProt P78527, whole entry: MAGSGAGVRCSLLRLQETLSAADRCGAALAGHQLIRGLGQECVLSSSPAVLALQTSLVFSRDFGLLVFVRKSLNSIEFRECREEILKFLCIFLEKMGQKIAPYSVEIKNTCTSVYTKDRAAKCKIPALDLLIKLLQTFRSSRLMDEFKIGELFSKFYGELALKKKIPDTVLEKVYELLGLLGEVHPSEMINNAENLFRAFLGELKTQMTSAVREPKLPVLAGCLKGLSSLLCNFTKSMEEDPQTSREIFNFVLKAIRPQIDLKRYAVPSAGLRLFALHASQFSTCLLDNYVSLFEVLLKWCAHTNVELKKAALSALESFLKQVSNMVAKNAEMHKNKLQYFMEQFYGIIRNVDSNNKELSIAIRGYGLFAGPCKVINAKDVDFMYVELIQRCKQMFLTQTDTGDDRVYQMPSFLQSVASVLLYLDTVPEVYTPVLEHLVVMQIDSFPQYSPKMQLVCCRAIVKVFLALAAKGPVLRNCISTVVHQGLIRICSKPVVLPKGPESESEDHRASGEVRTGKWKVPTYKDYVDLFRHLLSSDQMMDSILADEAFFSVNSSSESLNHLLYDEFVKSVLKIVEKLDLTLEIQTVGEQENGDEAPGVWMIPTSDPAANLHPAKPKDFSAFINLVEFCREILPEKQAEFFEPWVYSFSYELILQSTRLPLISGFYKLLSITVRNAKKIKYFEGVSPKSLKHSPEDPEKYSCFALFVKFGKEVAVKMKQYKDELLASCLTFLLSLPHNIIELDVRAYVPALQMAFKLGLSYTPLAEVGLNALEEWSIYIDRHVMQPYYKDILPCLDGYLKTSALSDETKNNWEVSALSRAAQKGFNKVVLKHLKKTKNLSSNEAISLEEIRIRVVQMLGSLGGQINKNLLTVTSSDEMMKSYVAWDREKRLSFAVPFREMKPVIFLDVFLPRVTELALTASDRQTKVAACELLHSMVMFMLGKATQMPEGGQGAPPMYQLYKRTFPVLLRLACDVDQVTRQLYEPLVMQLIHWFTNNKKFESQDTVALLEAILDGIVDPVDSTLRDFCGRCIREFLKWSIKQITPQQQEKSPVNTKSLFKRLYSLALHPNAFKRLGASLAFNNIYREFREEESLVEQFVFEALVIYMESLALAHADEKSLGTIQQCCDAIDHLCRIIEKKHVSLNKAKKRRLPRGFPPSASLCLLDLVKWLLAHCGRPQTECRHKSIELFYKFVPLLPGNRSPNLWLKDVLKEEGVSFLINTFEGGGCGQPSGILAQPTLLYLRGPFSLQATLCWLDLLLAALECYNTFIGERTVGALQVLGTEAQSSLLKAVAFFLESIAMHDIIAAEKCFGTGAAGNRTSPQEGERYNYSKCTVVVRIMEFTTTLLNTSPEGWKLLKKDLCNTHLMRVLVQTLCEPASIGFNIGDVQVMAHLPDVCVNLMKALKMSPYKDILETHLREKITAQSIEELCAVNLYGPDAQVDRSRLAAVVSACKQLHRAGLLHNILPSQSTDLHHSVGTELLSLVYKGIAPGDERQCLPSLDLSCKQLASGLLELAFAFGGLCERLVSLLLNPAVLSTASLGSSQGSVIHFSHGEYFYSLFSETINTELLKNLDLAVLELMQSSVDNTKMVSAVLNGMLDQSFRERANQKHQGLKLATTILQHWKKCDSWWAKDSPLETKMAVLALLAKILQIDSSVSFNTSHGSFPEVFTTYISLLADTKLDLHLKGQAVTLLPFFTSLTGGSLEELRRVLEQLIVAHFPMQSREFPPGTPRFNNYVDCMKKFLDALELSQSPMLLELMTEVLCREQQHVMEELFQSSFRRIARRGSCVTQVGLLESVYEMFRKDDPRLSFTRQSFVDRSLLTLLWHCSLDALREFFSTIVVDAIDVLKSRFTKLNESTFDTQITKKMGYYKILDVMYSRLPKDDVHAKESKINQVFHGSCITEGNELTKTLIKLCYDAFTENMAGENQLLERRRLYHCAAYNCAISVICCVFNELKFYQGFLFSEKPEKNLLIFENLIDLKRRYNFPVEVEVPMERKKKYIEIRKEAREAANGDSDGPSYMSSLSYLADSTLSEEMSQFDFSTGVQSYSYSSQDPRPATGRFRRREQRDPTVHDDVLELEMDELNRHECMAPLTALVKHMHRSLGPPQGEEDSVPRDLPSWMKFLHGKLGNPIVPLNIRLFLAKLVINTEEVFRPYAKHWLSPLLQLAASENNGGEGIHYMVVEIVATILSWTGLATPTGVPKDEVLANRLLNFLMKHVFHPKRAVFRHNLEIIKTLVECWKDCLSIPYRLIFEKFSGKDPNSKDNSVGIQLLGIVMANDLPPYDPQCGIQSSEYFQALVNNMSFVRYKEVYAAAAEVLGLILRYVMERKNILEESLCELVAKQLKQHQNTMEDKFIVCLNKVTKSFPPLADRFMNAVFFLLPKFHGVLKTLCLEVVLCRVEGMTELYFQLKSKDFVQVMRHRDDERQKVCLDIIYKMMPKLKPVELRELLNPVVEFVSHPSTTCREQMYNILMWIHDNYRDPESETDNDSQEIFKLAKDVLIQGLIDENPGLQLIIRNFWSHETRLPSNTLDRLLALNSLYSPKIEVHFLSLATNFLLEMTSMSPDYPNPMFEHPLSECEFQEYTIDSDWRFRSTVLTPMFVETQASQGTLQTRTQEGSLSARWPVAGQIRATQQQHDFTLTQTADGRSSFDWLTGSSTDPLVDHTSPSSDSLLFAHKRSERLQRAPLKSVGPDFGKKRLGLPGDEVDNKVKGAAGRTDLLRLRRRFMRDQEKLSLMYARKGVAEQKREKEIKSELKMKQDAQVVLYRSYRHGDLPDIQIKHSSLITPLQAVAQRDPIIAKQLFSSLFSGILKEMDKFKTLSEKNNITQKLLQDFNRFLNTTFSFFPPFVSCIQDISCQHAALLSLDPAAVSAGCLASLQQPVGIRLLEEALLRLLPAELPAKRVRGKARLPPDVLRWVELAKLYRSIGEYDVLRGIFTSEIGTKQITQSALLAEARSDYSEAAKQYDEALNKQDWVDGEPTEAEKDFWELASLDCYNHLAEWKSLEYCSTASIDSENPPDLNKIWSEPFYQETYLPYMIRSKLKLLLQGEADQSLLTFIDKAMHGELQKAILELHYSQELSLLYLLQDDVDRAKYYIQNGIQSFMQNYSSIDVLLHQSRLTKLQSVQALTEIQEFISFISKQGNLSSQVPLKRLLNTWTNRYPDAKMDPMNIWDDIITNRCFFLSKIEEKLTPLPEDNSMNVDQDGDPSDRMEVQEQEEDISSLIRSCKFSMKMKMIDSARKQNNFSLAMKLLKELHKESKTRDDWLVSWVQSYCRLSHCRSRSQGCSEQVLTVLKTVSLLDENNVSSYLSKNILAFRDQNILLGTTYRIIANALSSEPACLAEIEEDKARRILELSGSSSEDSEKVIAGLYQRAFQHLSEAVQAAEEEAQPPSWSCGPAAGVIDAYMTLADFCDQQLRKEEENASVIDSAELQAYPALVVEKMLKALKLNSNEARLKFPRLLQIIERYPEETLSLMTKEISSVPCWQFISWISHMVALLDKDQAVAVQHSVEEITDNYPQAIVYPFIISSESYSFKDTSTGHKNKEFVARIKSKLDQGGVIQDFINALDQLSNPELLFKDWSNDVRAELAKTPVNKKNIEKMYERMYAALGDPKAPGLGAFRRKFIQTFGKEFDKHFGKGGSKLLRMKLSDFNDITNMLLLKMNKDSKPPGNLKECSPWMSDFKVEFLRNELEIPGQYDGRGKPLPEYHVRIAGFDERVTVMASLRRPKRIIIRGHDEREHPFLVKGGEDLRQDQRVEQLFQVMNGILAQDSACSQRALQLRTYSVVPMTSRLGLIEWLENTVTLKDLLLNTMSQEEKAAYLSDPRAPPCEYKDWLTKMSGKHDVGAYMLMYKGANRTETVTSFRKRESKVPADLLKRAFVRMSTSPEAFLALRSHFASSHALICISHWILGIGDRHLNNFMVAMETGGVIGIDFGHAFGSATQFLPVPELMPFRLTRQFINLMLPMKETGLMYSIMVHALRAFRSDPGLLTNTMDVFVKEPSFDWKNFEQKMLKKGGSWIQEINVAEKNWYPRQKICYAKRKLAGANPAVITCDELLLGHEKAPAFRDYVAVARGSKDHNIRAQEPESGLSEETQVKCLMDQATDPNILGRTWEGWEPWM

The target in test [1] is T1, DNA-PK (Homo sapiens, UniProt P78527).
T1 construct: DNA-PK was purified from HeLa cells; endogenous in cells; host or cells: HeLa S3 cells; the endogenous enzyme was purified in house by chromatography
Description: Poorer substrate peptides added to (SEQ ID NO: 8) phosphorylation assays. Format: biochemical. The note with it: peptide up to 250 μM; (SEQ ID NO: 8) at 100 μM.

The target in test [2] is T1, DNA-PK. Description: Phosphorylation of synthetic peptides by purified DNA-PK (phosphocellulose paper binding method). Format: biochemical.

Consider “Ala Leu Pro Asn Asn Thr Ser Ser Ser Pro Gln Pro Lys Lys Lys Pro Leu Asp Gly Glu Tyr (ALPNNTSSSPQPKKKPLDGEY; Human p53 residues 306-327; listed as Homo sapiens) [SEQ ID NO: 29]”, for which, in the test with DNA-PK [1], the “inhibition of phosphorylation of (SEQ ID NO: 8)” value is on record as “None of these peptides significantly inhibited the phosphorylation”. In addition, the “substrate activity for DNA-PK (in words)” value with DNA-PK [2] is listed as “phosphorylated at a negligible rate; also recorded: not substrates for DNA-PK”. Further, the PO4 incorp. with DNA-PK [2] (each peptide at 200 μM, calf thymus DNA 10 μg/ml, 30° C.) is reported as 0.6 pmol/min/μg of DNA-PK.

The record behind these values is patent US6803203B1, “DNA-PK assay” (Brookhaven Science Associates, priority 1993, dated 2004).
